Results from patent US11286414B2, “Sodium nitroprusside and nitrate metabolic inhibition of sulfate-reducing microbes to control sulfide production” (UTI Limited Partnership, priority 2017, dated 2022).
Only a part of the results on these compounds is given; other tests are left out.

Tests used:
SRB = experiment: SNP kill of SRB (most probable numbers)
Procedure: (§1) An actively growing anaerobic culture of SRB, which also contained APB, was obtained from a continuous culture in CSBK medium with 4 mM lactate and 2 mM sulfate. Subcultures (10 ml) were transferred with a syringe to duplicate 60 ml serum bottles closed with butyl rubber stoppers and an N2—CO2 headspace. SNP was added to 0.5 mM (149 ppm). Controls without SNP were kept under the same conditions. After 10 min, 1 h and 24 h of exposure to SNP, aliquots (100 μl) of the cultures were serially diluted in triplicate in 48-well microtiter plates containing Postgate medium B (900 μl). Postgate medium B contains (g/L): KH2PO4 (0.5), NH4Cl (1.0), CaSO4 (1.0), MgSO4.7H2O (2.0), sodium lactate (4.0:60% w/w), yeast extract (1.0), ascorbic acid (0.1), thioglycolate (0.1), FeSO4.7H2O (0.5). APB were enumerated by growing triplicates of the serially diluted samples on phenol red broth (Difco, BD). The samples were incubated anaerobically for 3 weeks at 30° C. in the hood. […] Most probable numbers (MPNs) were derived from the data using appropriate statistical tables (Shen and Voordouw, 2015).

APB = experiment: SNP kill of acid producing bacteria (most probable numbers)
Procedure: as §1

In the case of Na2[Fe(CN)5NO].2H2O, the “killing of SRB (MPN decrease)” value (SRB; 0.5 mM (149 ppm) SNP, 1 h) is reported as 10^9 fold, the “MPN decrease of SRB” value (SRB; 0.5 mM (149 ppm) SNP, 24 h, below the detection limit) is reported as 10^9 fold and the “relative killing of SRB and APB” value (SRB; 0.5 mM SNP) is reported as “kills SRB more effectively than APB”. The “killing of SRB (MPN decrease)” value (SRB; 0.5 mM SNP, within 10 min) was “about 10^3 fold”, the “killing of APB (MPN decrease)” value (APB; 0.5 mM (149 ppm) SNP, 1 h) was 10^7 fold and the “killing of APB (MPN decrease)” value (APB; 0.5 mM SNP, within 10 min) was “about 10^3 fold”.
